According to patent US20260031189A1, “METHOD AND SYSTEMS FOR PREDICTION OF HLA CLASS II-SPECIFIC EPITOPES AND CHARACTERIZATION OF CD4+ T CELLS” (BioNTech US Inc., priority 2022, published 2026):

Target: T1, HLA-DRA*01:01/DRB1*01:01 soluble heterodimer (human)
T1 chain 1: not shown
T1 chain 2: not shown

## LPLKMLNIPSINVH (modifications not checked) [CMV]
  IC50 (read off the curve): 300 nM
